Values of other authors as cited in PMC4266452, “Prediction of Thorough QT study results using action potential simulations based on ion channel screens” (Journal of Pharmacological and Toxicological Methods, 2014).

Conditions: ref Gintant (2011); cited from earlier work

Structure (SMILES): CN(CCOc1ccc(NS(C)(=O)=O)cc1)CCc1ccc(NS(C)(=O)=O)cc1 [Dofetilide]
- therapeutic range, lower value: 0.4 nM
- therapeutic range, upper value: 2 nM
